In general, IC50 refers to the concentration at which inhibition is half-maximal.

By UniProt entry, the sequences of proteins in these tests, tags left out.
UniProt P53779, whole entry: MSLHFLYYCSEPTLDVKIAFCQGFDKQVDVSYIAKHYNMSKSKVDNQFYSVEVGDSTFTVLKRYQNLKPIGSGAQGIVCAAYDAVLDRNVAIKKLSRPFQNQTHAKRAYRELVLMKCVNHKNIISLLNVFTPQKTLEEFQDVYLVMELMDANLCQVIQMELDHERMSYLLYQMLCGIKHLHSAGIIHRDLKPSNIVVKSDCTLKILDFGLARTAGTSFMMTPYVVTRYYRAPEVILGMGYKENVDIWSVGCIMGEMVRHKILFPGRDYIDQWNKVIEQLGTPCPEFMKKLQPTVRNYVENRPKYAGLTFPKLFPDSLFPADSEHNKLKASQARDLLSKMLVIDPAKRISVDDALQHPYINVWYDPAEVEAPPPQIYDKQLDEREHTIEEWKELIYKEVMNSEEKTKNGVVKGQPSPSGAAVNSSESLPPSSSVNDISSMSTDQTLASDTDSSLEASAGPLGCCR

The target of one assay is JNK3 (Homo sapiens, UniProt P53779). Description: In vitro JNK3 inhibitory activity assay. To be noted: read-out: JNK3 inhibitory activity (IC50); Table 1, imidazo[2,1-b]thiazole derivatives, class symbols.
Regarding `NC(=O)c1cn2c(-c3ccnc(N[C@@H]4CCCN(C(=O)C5CC5)C4)n3)c(-c3ccc(Cl)c(Cl)c3)nc2s1`, the IC50 lay in the range of 1 to 30 nM.

In the case of `CNC(=O)c1cn2c(-c3ccnc(N[C@@H]4CCCN(C(=O)C5CC5)C4)n3)c(-c3ccc(Cl)c(Cl)c3)nc2s1`, the IC50 was in the range of 1 to 30 nM. Consider `CNC(=O)c1cn2c(-c3ccnc(N[C@H]4CCCN(C(=O)N(C)C)C4)n3)c(-c3ccc(F)c(C(F)(F)F)c3)nc2s1`, for which the IC50 fell in the range of 30 to 1000 nM.

Consider `CNC(=O)c1cn2c(-c3ccnc(N[C@H]4CCCN(C(=O)C5CC5)C4)n3)c(-c3ccc(F)c(C(F)(F)F)c3)nc2s1`, for which the IC50 fell in the range of 30 to 1000 nM. With `CCOC(=O)c1cn2c(-c3ccnc(N[C@H]4CCCN(C(=O)C5CC5)C4)n3)c(-c3ccc4c(c3)OCCO4)nc2s1`, the concentration for half-maximal inhibition (IC50) fell in the range of 30 to 1000 nM. On to `CN(C)C(=O)N1CCC[C@@H](Nc2nccc(-c3c(-c4ccc(F)c(C(F)(F)F)c4)nc4sc(C(N)=O)cn34)n2)C1`, for which the IC50 lay in the range of 1 to 30 nM. For `NC(=O)c1cn2c(-c3ccnc(N[C@@H]4CCCN(C(=O)C5CC5)C4)n3)c(-c3ccc4c(c3)OCCO4)nc2s1`, the 50% inhibitory concentration (IC50) is 1 to 30 nM. Take `CNC(=O)c1cn2c(-c3ccnc(N[C@@H]4CCCN(C(=O)N(C)C)C4)n3)c(-c3ccc(Cl)c(Cl)c3)nc2s1`: the concentration for half-maximal inhibition (IC50) was under 1 nM.

Regarding `CN(C)C(=O)N1CCC[C@H](Nc2nccc(-c3c(-c4ccc(F)c(C(F)(F)F)c4)nc4sc(C(N)=O)cn34)n2)C1`, the IC50 was 30 to 1000 nM. The same measure, in the same setting: with `CCOC(=O)c1cn2c(-c3ccnc(N[C@@H]4CCCN(C(=O)C5CC5)C4)n3)c(-c3ccc4c(c3)OCCO4)nc2s1` the figure was 1 to 30 nM. In the case of `CCOC(=O)c1cn2c(-c3ccnc(N[C@H]4CCCN(C(=O)N(C)C)C4)n3)c(-c3ccc(F)c(C(F)(F)F)c3)nc2s1`, the half-inhibitory concentration (IC50) was in the range of 30 to 1000 nM. The same measure, in the same setting: to `CNC(=O)c1cn2c(-c3ccnc(N[C@@H]4CCCN(C(=O)N(C)C)C4)n3)c(-c3ccc(F)c(C(F)(F)F)c3)nc2s1` belongs 1 to 30 nM. In the case of `CCOC(=O)c1cn2c(-c3ccnc(N[C@@H]4CCCN(C(=O)N(C)C)C4)n3)c(-c3ccc4c(c3)OCCO4)nc2s1`, the concentration for half-maximal inhibition (IC50) was under 1 nM.

Still in this assay, the particulars now being: read-out: JNK3 inhibitory activity (IC50); Table 2, imidazo[2,1-b]thiazole derivatives, class symbols.
As for `COCCNc1nccc(-c2c(-c3ccc4ccccc4c3)nc3sc(C(N)=O)cn23)n1`, the IC50 is 30 to 1000 nM. For the compound `CNC(=O)c1cn2c(-c3ccnc(NCCOC)n3)c(-c3ccc4ccccc4c3)nc2s1`, the 50% inhibitory concentration (IC50) fell in the range of 1 to 30 nM.

On to `NC(=O)c1cn2c(-c3ccnc(NC4CCOCC4)n3)c(-c3ccc4c(c3)OCCO4)nc2s1`, for which the 50% inhibitory concentration (IC50) lay in the range of 30 to 1000 nM. Regarding `CNC(=O)c1cn2c(-c3ccnc(NCC4CC4)n3)c(-c3ccc4ccccc4c3)nc2s1`, the half-maximal inhibitory concentration (IC50) is 1000 to 10000 nM.

Consider `CCOC(=O)c1cn2c(-c3ccnc(NC4CCCCC4)n3)c(-c3ccc4ccccc4c3)nc2s1`, for which the IC50 is 1 to 30 nM. Regarding `CNC(=O)c1cn2c(-c3ccnc(NC4CCOCC4)n3)c(-c3ccc4ccccc4c3)nc2s1`, the half-maximal inhibitory concentration (IC50) was in the range of 1 to 30 nM. Consider `NC(=O)c1cn2c(-c3ccnc(NC4CCCCC4)n3)c(-c3ccc(F)c(Cl)c3)nc2s1`, for which the IC50 was 1 to 30 nM.

The assay is the same for the next values; noted with them: read-out: JNK3 inhibitory activity (IC50); Table 3, imidazo[2,1-b]oxazole derivatives, class symbols.
Regarding `CCOC(=O)c1cn2c(-c3ccnc(N[C@H]4CCCN(C(=O)N(C)C)C4)n3)c(-c3ccc(Cl)c(Cl)c3)nc2o1`, the IC50 lay in the range of 1 to 30 nM.

Take `CCOC(=O)c1cn2c(-c3ccnc(N[C@@H]4CCCN(C(=O)C5CC5)C4)n3)c(-c3ccc4ccccc4c3)nc2o1`: the IC50 fell in the range of 1 to 30 nM. Turning to `CN(C)C(=O)N1CCC[C@H](Nc2nccc(-c3c(-c4ccc5ccccc5c4)nc4oc(C(N)=O)cn34)n2)C1`, the IC50 was under 1 nM. Turning to `CNC(=O)c1cn2c(-c3ccnc(N[C@H]4CCCN(C(=O)C5CC5)C4)n3)c(-c3ccc4c(c3)OCCO4)nc2o1`, the IC50 was under 1 nM. Regarding `NC(=O)c1cn2c(-c3ccnc(N[C@H]4CCCN(C(=O)C5CC5)C4)n3)c(-c3ccc(Cl)c(Cl)c3)nc2o1`, the IC50 lay within 1000 to 10000 nM. Regarding `CN(C)C(=O)N1CCC[C@@H](Nc2nccc(-c3c(-c4ccc(Cl)c(Cl)c4)nc4oc(C(N)=O)cn34)n2)C1`, the IC50 is 1000 to 10000 nM. For the compound `CCOC(=O)c1cn2c(-c3ccnc(N[C@H]4CCN(C(=O)C5CC5)C4)n3)c(-c3ccc4ccccc4c3)nc2o1`, the concentration for half-maximal inhibition (IC50) is over 10000 nM.

With `NC(=O)c1cn2c(-c3ccnc(N[C@H]4CCCN(C(=O)C5CC5)C4)n3)c(-c3ccc4ccccc4c3)nc2o1`, the IC50 is under 1 nM. Still for that read-out and setting: to `CNC(=O)c1cn2c(-c3ccnc(N[C@H]4CCCN(C(=O)C5CC5)C4)n3)c(-c3ccc(F)c(Cl)c3)nc2o1` belongs under 1 nM. On to `CNC(=O)c1cn2c(-c3ccnc(N[C@H]4CCCN(C(=O)C5CC5)C4)n3)c(-c3ccc4ccccc4c3)nc2o1`, for which the IC50 was under 1 nM. On to `CCOC(=O)c1cn2c(-c3ccnc(N[C@H]4CCCN(C(=O)N(C)C)C4)n3)c(-c3ccc4ccccc4c3)nc2o1`, for which the IC50 was 30 to 1000 nM.

For `CNC(=O)c1cn2c(-c3ccnc(N[C@@H]4CCCN(C(=O)N(C)C)C4)n3)c(-c3ccc4ccccc4c3)nc2o1`, the IC50 is under 1 nM.

Turning to `CNC(=O)c1cn2c(-c3ccnc(N[C@H]4CCN(C(=O)C5CC5)C4)n3)c(-c3ccc4ccccc4c3)nc2o1`, the IC50 lay within 1000 to 10000 nM.

In the case of `CCOC(=O)c1cn2c(-c3ccnc(N[C@@H]4CCCN(C(=O)C5CC5)C4)n3)c(-c3ccc(Cl)c(Cl)c3)nc2o1`, the 50% inhibitory concentration (IC50) is under 1 nM. As for `CNC(=O)c1cn2c(-c3ccnc(N[C@@H]4CCN(C(=O)C5CC5)C4)n3)c(-c3ccc4ccccc4c3)nc2o1`, the IC50 was over 10000 nM.

In the case of `NC(=O)c1cn2c(-c3ccnc(N[C@H]4CCCN(C(=O)C5CC5)C4)n3)c(-c3ccc(F)c(Cl)c3)nc2o1`, the half-maximal inhibitory concentration (IC50) was under 1 nM.

For `CNC(=O)c1cn2c(-c3ccnc(N[C@H]4CCCN(C(=O)N(C)C)C4)n3)c(-c3ccc(Cl)c(Cl)c3)nc2o1`, the half-maximal inhibitory concentration (IC50) is under 1 nM.

Staying with this assay, now noted: read-out: JNK3 inhibitory activity (IC50); Table 4, imidazo[2,1-b]oxazole derivatives, class symbols.
For the compound `NC(=O)c1cn2c(-c3ccnc(NC4CCN(C(=O)C5CC5)CC4)n3)c(-c3ccc4ccccc4c3)nc2o1`, the IC50 is under 1 nM.

Staying with this assay, now noted: read-out: JNK3 inhibitory activity (IC50); Table 5, imidazo[2,1-b]oxazole derivatives, class symbols.
Turning to `CNC(=O)c1cn2c(-c3ccnc(NC4CCCCC4)n3)c(-c3ccc(F)c(Cl)c3)nc2o1`, the half-inhibitory concentration (IC50) is under 1 nM. As to `NC(=O)c1cn2c(-c3ccnc(NC4CCCCC4)n3)c(-c3ccc4c(c3)OCCO4)nc2o1`, the half-maximal inhibitory concentration (IC50) was in the range of 1 to 30 nM. In the case of `CCOC(=O)c1cn2c(-c3ccnc(NC4CCOCC4)n3)c(-c3ccc4ccccc4c3)nc2o1`, the concentration for half-maximal inhibition (IC50) was under 1 nM. On to `CCOC(=O)c1cn2c(-c3ccnc(NC4CCCCC4)n3)c(-c3ccc4ccccc4c3)nc2o1`, for which the IC50 was under 1 nM. As for `CCOC(=O)c1cn2c(-c3ccnc(NC4CCOCC4)n3)c(-c3ccc(F)c(Cl)c3)nc2o1`, the concentration for half-maximal inhibition (IC50) is under 1 nM. With `NC(=O)c1cn2c(-c3ccnc(NC4CCOCC4)n3)c(-c3ccc4ccccc4c3)nc2o1`, the IC50 was under 1 nM.

In the case of `NC(=O)c1cn2c(-c3ccnc(NC4CCCCC4)n3)c(-c3ccc(Cl)c(Cl)c3)nc2o1`, the IC50 is under 1 nM.

Still in this assay, the particulars now being: read-out: JNK3 inhibitory activity (IC50); Table 6, imidazo[2,1-b]thiazole-based covalent inhibitors, class symbols.
Regarding `C=CC(=O)Nc1cn2c(-c3ccnc(NC4CCCCC4)n3)c(-c3ccc(F)c(Cl)c3)nc2s1`, the IC50 is 1 to 30 nM.

In the case of `C=CC(=O)c1cn2c(-c3ccnc(NC4CCCCC4)n3)c(-c3ccc4ccccc4c3)nc2s1`, the half-maximal inhibitory concentration (IC50) fell in the range of 1 to 30 nM. As to `C#CCNC(=O)c1cn2c(-c3ccnc(NC4CCOCC4)n3)c(-c3ccc(Cl)c(Cl)c3)nc2s1`, the 50% inhibitory concentration (IC50) is 1 to 30 nM. Take `C=CC(=O)c1cn2c(-c3ccnc(NC4CCOCC4)n3)c(-c3ccc4ccccc4c3)nc2s1`: the IC50 lay within 1 to 30 nM.

Still in this assay, the particulars now being: read-out: JNK3 inhibitory activity (IC50); Table 7, imidazo[2,1-b]oxazole-based covalent inhibitors, class symbols.
Regarding `CN(C)/C=C/C(=O)c1cn2c(-c3ccnc(NC4CCOCC4)n3)c(-c3ccc(F)c(Cl)c3)nc2o1`, the IC50 is under 1 nM.

Take `CN(C)/C=C/C(=O)c1cn2c(-c3ccnc(NC4CCCCC4)n3)c(-c3ccc(F)c(Cl)c3)nc2o1`: the half-inhibitory concentration (IC50) was 1 to 30 nM. Consider `C#CCNC(=O)c1cn2c(-c3ccnc(NC4CCOCC4)n3)c(-c3ccc(Cl)c(Cl)c3)nc2o1`, for which the half-inhibitory concentration (IC50) lay in the range of 1 to 30 nM.

The values above are taken from US20260384451A1, “6-ARYL IMIDAZO[2,1-B]THI/OpXAZOLE-2-CARBOXILIC ACID DERIVATIVE AND PHARMACEUTICAL COMPOSITION FOR TREATING ALZHEIMER'S DISEASE CONTAINING SAME AS ACTIVE INGREDIENT” (published 2026).
